By UniProt entry, the sequences of proteins in these tests, tags left out. Where a name states a change or a piece, a line headed by the entry shows the natural chain unless it says otherwise.
UniProt P27815: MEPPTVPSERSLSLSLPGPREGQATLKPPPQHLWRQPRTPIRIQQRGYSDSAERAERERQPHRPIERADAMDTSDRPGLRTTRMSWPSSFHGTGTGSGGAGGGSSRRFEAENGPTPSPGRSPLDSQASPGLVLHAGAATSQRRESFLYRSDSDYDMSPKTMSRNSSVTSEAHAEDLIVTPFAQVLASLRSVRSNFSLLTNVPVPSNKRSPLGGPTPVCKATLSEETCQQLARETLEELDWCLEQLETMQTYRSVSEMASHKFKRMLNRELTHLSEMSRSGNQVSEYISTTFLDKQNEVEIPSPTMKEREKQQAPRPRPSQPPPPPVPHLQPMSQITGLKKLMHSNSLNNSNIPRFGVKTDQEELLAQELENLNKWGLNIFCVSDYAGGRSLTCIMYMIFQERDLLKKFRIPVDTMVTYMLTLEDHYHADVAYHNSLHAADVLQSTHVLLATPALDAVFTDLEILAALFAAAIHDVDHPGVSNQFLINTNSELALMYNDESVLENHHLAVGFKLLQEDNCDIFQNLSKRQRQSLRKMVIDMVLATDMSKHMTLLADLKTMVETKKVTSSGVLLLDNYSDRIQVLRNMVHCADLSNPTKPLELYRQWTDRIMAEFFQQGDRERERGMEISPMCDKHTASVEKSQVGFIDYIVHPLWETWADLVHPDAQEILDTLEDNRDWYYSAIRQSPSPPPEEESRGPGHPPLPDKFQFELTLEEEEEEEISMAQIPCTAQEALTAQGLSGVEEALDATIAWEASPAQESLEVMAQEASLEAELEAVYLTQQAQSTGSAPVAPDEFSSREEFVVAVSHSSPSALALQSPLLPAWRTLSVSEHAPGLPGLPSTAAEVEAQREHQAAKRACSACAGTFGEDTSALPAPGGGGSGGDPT
UniProt Q14432: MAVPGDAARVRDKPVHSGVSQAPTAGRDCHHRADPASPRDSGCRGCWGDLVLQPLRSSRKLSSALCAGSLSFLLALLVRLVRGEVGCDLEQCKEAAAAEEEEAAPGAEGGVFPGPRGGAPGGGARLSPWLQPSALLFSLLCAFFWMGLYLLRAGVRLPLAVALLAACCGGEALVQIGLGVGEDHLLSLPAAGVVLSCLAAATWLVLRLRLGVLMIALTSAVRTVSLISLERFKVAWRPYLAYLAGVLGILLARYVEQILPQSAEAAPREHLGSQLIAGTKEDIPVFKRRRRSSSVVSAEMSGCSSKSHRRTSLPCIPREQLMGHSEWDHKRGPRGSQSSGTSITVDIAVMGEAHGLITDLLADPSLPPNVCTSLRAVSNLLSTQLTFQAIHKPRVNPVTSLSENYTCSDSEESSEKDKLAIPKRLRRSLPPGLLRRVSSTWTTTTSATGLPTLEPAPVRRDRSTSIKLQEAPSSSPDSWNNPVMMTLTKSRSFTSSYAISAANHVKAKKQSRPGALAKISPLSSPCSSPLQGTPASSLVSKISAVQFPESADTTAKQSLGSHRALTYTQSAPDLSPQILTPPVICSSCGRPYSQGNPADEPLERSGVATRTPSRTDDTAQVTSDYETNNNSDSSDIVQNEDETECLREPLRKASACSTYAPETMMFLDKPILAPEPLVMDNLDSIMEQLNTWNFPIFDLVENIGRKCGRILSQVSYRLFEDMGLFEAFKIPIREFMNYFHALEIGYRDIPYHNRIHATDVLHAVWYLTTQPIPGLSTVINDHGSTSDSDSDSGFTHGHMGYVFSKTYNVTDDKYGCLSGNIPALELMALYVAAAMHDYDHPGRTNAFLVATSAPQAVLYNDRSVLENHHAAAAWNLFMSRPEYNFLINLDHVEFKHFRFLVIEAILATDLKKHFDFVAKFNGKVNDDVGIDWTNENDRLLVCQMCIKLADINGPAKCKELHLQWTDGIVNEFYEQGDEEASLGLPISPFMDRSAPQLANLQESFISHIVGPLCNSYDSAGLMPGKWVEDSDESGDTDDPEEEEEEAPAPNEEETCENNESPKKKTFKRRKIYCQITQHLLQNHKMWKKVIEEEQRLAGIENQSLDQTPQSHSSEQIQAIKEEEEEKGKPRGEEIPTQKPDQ
UniProt Q08499: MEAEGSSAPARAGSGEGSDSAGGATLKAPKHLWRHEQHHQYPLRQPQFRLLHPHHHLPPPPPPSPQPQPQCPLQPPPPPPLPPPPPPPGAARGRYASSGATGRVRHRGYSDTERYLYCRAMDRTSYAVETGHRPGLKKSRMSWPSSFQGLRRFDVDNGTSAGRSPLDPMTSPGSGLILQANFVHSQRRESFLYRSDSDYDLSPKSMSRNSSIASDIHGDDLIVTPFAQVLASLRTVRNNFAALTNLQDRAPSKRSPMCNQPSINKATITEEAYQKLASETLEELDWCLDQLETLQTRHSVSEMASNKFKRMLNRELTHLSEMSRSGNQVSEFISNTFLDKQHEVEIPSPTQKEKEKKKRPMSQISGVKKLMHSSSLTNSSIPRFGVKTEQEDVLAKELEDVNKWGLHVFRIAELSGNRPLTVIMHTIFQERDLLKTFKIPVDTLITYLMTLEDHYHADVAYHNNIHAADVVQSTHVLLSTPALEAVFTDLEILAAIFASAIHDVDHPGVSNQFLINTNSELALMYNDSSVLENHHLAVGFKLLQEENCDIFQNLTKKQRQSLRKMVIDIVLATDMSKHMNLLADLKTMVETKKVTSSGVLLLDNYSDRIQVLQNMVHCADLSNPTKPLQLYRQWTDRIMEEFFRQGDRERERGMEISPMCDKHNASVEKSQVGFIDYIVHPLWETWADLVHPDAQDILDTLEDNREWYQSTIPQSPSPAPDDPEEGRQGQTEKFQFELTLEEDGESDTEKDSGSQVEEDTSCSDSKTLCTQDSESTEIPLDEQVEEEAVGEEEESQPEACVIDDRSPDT
UniProt Q07343: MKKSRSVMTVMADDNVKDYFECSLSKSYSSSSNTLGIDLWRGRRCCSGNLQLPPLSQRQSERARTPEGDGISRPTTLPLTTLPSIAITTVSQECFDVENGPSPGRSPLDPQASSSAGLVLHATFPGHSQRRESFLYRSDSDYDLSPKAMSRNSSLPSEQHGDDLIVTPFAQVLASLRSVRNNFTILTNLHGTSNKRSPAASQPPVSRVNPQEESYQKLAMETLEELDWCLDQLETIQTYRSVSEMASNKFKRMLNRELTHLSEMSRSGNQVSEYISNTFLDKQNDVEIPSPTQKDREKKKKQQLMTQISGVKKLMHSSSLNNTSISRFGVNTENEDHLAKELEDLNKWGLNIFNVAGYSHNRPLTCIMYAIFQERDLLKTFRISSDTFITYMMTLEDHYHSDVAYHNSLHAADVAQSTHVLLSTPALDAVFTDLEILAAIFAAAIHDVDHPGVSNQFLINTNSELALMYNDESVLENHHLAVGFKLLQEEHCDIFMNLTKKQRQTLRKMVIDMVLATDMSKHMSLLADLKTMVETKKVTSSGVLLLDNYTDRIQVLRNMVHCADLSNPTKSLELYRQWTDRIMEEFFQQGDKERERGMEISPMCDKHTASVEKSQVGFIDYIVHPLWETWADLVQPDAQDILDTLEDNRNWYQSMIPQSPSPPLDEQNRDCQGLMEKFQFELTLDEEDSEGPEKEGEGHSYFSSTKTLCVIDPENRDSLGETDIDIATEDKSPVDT
UniProt Q13370: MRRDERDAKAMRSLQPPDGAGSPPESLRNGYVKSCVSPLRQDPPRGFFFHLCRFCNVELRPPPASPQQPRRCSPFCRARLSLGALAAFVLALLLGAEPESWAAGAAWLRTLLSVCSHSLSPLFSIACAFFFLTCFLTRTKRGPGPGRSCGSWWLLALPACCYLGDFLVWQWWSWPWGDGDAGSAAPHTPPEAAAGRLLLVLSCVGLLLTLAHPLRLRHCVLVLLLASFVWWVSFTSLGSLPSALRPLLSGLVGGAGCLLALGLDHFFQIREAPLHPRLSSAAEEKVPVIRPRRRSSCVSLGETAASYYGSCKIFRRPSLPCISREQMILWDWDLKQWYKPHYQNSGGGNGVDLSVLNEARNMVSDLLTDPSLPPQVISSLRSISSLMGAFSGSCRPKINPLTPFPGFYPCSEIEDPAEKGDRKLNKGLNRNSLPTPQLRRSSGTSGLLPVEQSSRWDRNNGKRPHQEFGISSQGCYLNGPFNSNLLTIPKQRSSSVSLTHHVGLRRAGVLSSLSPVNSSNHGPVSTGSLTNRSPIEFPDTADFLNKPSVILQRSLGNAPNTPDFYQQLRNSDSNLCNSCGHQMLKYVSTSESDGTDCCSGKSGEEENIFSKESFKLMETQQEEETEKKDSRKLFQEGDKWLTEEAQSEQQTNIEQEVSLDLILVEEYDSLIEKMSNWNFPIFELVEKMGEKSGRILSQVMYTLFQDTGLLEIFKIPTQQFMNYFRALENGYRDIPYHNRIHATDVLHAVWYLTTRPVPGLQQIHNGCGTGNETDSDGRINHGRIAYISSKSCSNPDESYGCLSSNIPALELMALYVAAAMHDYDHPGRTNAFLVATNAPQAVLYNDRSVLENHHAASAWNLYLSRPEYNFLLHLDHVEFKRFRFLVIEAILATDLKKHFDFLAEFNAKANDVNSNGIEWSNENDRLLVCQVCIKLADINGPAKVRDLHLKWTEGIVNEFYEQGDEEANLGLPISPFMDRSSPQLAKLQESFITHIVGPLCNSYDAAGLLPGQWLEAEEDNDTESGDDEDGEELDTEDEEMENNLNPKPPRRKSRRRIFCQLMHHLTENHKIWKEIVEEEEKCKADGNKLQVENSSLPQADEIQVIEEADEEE
UniProt Q08493: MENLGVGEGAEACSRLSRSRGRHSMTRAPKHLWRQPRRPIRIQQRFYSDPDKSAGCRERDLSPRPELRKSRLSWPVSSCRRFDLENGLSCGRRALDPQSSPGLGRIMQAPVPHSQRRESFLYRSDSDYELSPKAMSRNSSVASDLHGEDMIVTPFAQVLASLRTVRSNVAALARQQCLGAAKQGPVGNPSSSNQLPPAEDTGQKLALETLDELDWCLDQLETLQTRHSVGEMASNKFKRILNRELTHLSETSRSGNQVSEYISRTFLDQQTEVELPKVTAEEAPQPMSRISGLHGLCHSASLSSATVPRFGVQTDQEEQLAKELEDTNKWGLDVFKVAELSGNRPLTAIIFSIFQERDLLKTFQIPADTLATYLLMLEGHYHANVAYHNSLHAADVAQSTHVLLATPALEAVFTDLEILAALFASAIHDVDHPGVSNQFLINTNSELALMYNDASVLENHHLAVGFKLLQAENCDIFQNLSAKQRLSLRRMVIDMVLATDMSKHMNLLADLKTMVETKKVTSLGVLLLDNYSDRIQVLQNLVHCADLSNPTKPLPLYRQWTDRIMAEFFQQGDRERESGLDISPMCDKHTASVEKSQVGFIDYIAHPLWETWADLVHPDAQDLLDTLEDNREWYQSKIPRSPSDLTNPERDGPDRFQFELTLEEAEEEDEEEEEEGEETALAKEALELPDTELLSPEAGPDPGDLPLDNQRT

In ChEMBL document CHEMBL1123670, “Inhibitors of cyclic AMP phosphodiesterase. 2. Structural variations of N-cyclohexyl-N-methyl-4-[(1,2,3,5-tetrahydro- 2-oxoimidazo[2,1-b]quinazolin-7-yl)-oxy]butyramide (RS-82856)” (J Med Chem, 1987):

Experiments:
[1] = Selectivity index is the ratio of IC25 of rat heart PDE to IC50 of human platelet PDE
[2] = biological target: Phosphodiesterase; PDE3 & PDE4 (Homo sapiens) (UniProt P27815+Q14432+Q08499+Q07343+Q13370+Q08493); experiment: Selectivity index is the ratio of IC25 of dog heart PDE to IC50 of human platelet PDE; conditions: Canis lupus familiaris

Compound `CN(C(=O)CCCCCCOc1ccc2c(c1)CN1CC(=O)NC1=N2)C1CCCCC1` has a Ratio [1] of 2.8.
Work on `CN(C(=O)CCCOc1ccc2nc3n(c(=O)c2c1)CC(=O)N3)C1CCCCC1` yielded a Ratio [1] of 0.53.
For `NC(=O)CN(C(=O)CCCOc1ccc2c(c1)CN1CC(=O)NC1=N2)C1CCCCC1`, the Ratio [2] was 9.1.
In the case of `CCOC(=O)CCCOc1ccc2c(c1)CN1CC(=O)NC1=N2`, the Ratio [2] is reported as 1.8.
With `CN(C(=O)NCCOc1ccc2c(c1)CN1CC(=O)NC1=N2)C1CCCCC1` the Ratio [2] was 46.
Compound `O=C(O)CCCOc1ccc2c(c1)CN1CC(=O)NC1=N2` has a Ratio [2] of 0.46.
Work on `CNC(=O)CCCOc1ccc2c(c1)CN1CC(=O)NC1=N2` yielded a Ratio [2] of 0.8.
`O=C1CN2Cc3cc(OCCCC(=O)OC4CCCCC4)ccc3N=C2N1` showed a Ratio [2] of 2.4.
Compound `CN(Cc1ccccc1)C(=O)CCCOc1ccc2c(c1)CN1CC(=O)NC1=N2` has a Ratio [1] of 9.2.
With `CN(C(=O)CCCOc1ccc2c(c1)CN1C(=O)C(=O)NC1=N2)C1CCCCC1` the Ratio [2] was 0.4.
For `CN(C(=O)CCC[S+]([O-])c1ccc2c(c1)CN1CC(=O)NC1=N2)C1CCCCC1` (stereo unspecified), the Ratio [2] was 3.6.
In the case of `O=C1CN2Cc3cc(OCCCC(=O)N4CCCCC4)ccc3N=C2N1`, the Ratio [1] is reported as 5.8.
`O=C1CN2Cc3cc(OCCCC(=O)N(C(CO)CO)C4CCCCC4)ccc3N=C2N1` showed a Ratio [2] of 2.2.
Compound `CC(O)[C@H]1C(=O)NC2=Nc3ccc(OCCCC(=O)N(C)C4CCCCC4)cc3CN21` (stereo partly specified) has a Ratio [2] of 1.7.
For `O=C1CN2Cc3cc(OCCCC(=O)N(CCCCCCO)C4CCCCC4)ccc3N=C2N1`, the Ratio [2] was 0.56.
`CN(C(=O)CCCOc1ccc2c(c1)CN1C(=N2)NC(=O)C1(C)C)C1CCCCC1` showed a Ratio [2] of 5.1.
Compound `COC(=O)CN(C(=O)CCCOc1ccc2c(c1)CN1CC(=O)NC1=N2)C1CCCCC1` has a Ratio [2] of 5.
Work on `O=C1CN2Cc3cc(OCCCC(=O)N(CCn4ccnc4)C4CCCCC4)ccc3N=C2N1` yielded a Ratio [2] of 1.25.
`CN(C(=O)CCCS(=O)(=O)c1ccc2c(c1)CN1CC(=O)NC1=N2)C1CCCCC1` gave a Ratio [2] of 2.1.
`CN(C(=O)CCCCCOc1ccc2c(c1)CN1CC(=O)NC1=N2)C1CCCCC1` gave a Ratio [1] of 1.75.
With `CN(C(=O)OCCOc1ccc2c(c1)CN1CC(=O)NC1=N2)C1CCCCC1` the Ratio [2] was 4.5.
With `CN(C(=O)CCCOc1ccc2c(c1)CN1CC(=O)NC1=N2)c1ccccc1` the Ratio [1] was 13.5.
With `CC(C)[C@H]1C(=O)NC2=Nc3ccc(OCCCC(=O)N(C)C4CCCCC4)cc3CN21` the Ratio [2] was < 0.64.
`O=C1CN2Cc3cc(OCCCC(=O)NC4CCCCC4)ccc3N=C2N1` showed a Ratio [2] of 2.5.
`O=C1CN2Cc3cc(OCCCC(=O)N(Cc4ccccc4)Cc4ccccc4)ccc3N=C2N1` gave a Ratio [1] of 6.5.
Work on `NC(=O)CCCOc1ccc2c(c1)CN1CC(=O)NC1=N2` yielded a Ratio [2] of 0.55.
In the case of `CN(C(=O)CCCCOc1ccc2c(c1)CN1CC(=O)NC1=N2)C1CCCCC1`, the Ratio [1] is reported as 4.8.
In the case of `CN(C(=O)CCCOc1ccc2c(c1)CN1C(=N2)NC(=O)[C@H]1CO)C1CCCCC1`, the Ratio [2] is reported as 3.9.
`COC1=NC2=Nc3ccc(OCCCC(=O)N(C)C4CCCCC4)cc3CN2C1` showed a Ratio [2] of 0.3.
`CN(C(=O)CCCOc1ccc2c(c1)CN1C(=N2)NC(=O)[C@@H]1c1ccccc1)C1CCCCC1` gave a Ratio [2] of 1.1.
For `CN(C(=O)CCCOc1cccc2c1CN1CC(=O)NC1=N2)C1CCCCC1`, the Ratio [2] was 0.75.
In the case of `CN(C(=O)CCCOc1ccc2c(c1Cl)CN1CC(=O)NC1=N2)C1CCCCC1`, the Ratio [2] is reported as 7.1.
For `CCN(C(=O)CCCOc1ccc2c(c1)CN1CC(=O)NC1=N2)C1CCCCC1`, the Ratio [2] was 3.5.
`CC1c2cc(OCCCC(=O)N(C)C3CCCCC3)ccc2NC2=NC(=O)CN21` (stereo unspecified) gave a Ratio [2] of 2.4.
With `CN(C(=O)CCCOc1ccc2c(c1)CN1CC(=O)NC1=N2)C(c1ccccc1)c1ccccc1` the Ratio [1] was 4.
Work on `CN(C(=O)CCCOc1ccc2c(c1)CN1CC(=O)NC1=N2)C1CCCCC1` [LIXAZINONE] yielded a Ratio [2] of 0.4.
Work on `CN(C(=O)CCCOc1ccc2c(c1)CN1CC(=O)NC1=N2)C1CCCCCC1` yielded a Ratio [2] of 4.2.
In the case of `CN(C(=O)CCCOc1ccc2c(c1)CN1CC(=O)NC1=N2)C1CCC(O)CC1` (stereo unspecified), the Ratio [2] is reported as 2.4.
`O=C1CN2Cc3cc(OCCCC(=O)N(C4CCCCC4)C4CCCCC4)ccc3N=C2N1` showed a Ratio [1] of 11.
Compound `CN(C(=O)CCCOc1ccc2c(c1)CN1C(=N2)NC(=O)[C@@H]1CO)C1CCCCC1` has a Ratio [2] of 3.27.
Compound `CN(C(=O)COc1ccc2c(c1)CN1CC(=O)NC1=N2)C1CCCCC1` has a Ratio [1] of 5.4.
`C[C@@H]1C(=O)NC2=Nc3ccc(OCCCC(=O)N(C)C4CCCCC4)cc3CN21` gave a Ratio [2] of 5.
`O=C1CN2Cc3cc(OCCCC(=O)N(CCCCO)C4CCCCC4)ccc3N=C2N1` showed a Ratio [2] of 1.1.
For `CN(C(=O)CCCOc1ccc2c(c1)CN1CCNC1=N2)C1CCCCC1`, the Ratio [2] was 0.8.
Work on `O=C(O)CN(C(=O)CCCOc1ccc2c(c1)CN1CC(=O)NC1=N2)C1CCCCC1` yielded a Ratio [1] of 20.
Compound `CC[C@@H]1C(=O)NC2=Nc3ccc(OCCCC(=O)N(C)C4CCCCC4)cc3CN21` has a Ratio [2] of 1.68.
Compound `O=C1CN2Cc3cc(OCCCC(=O)N(CCCO)C4CCCCC4)ccc3N=C2N1` has a Ratio [2] of 2.8.
With `CC(C)N(C(=O)CCCOc1ccc2c(c1)CN1CC(=O)NC1=N2)C1CCCCC1` the Ratio [2] was 4.7.
With `CN(C(=O)CCCOc1ccc2c(c1)CN1C(=N2)NC(=O)[C@H]1c1ccccc1)C1CCCCC1` the Ratio [2] was 1.
Work on `O=C1CN2Cc3cc(OCCCC(=O)N(CCN4CCOCC4)C4CCCCC4)ccc3N=C2N1` yielded a Ratio [2] of 7.8.
In the case of `CC(C)[C@@H]1C(=O)NC2=Nc3ccc(OCCCC(=O)N(C)C4CCCCC4)cc3CN21`, the Ratio [2] is reported as 0.6.
For `O=C1CN2Cc3cc(OCCCC(=O)N4CCCC5CCCCC54)ccc3N=C2N1` (stereo unspecified), the Ratio [1] was 15.
Work on `CN(C(=O)CCCOc1ccc2c(c1)CN1CCC(=O)NC1=N2)C1CCCCC1` yielded a Ratio [2] of 0.77.
Work on `O=C1CN2Cc3cc(OCCCC(=O)N(CCO)C4CCCCC4)ccc3N=C2N1` yielded a Ratio [1] of 5.6.
With `C=c1c(=O)[nH]c2n1Cc1cc(OCCCC(=O)N(C)C3CCCCC3)ccc1N=2` the Ratio [2] was 16.7.
With `O=C1CN2Cc3cc(OCCCC(=O)N4CCCc5ccccc54)ccc3N=C2N1` the Ratio [1] was 16.
For `CN(C(=O)CCCSc1ccc2c(c1)CN1CC(=O)NC1=N2)C1CCCCC1`, the Ratio [2] was 1.86.
`CN1C(=O)CN2Cc3cc(OCCCC(=O)N(C)C4CCCCC4)ccc3N=C21` gave a Ratio [2] of 0.5.
Compound `O=C1CN2Cc3cc(OCCCc4nnnn4C4CCCCC4)ccc3N=C2N1` has a Ratio [2] of 4.
In the case of `CN(C(=O)CCCOc1cccc2c1NC1=NC(=O)CN1C2)C1CCCCC1`, the Ratio [2] is reported as < 0.016.
`CN(C(=O)CCCOc1ccc2c(c1)CN1CC(=O)NC1=N2)C1CCCCCCC1` showed a Ratio [2] of 0.7.
For `O=C1CN2Cc3cc(OCCCC(=O)N4CCOCC4)ccc3N=C2N1`, the Ratio [1] was 4.4.
For `CN(C(=O)CCCOc1ccc2c(c1)CN1NC(=O)NC1=N2)C1CCCCC1`, the Ratio [2] was 0.36.
With `CN(C(=O)CCCOc1ccc2nc3n(c(=O)c2c1)CCN3)C1CCCCC1` the Ratio [1] was 0.15.
Work on `CN(C)C(=O)CCCOc1ccc2c(c1)CN1CC(=O)NC1=N2` yielded a Ratio [2] of 0.3.
`O=C1CN2Cc3cc(OCCCC(=O)N(CCCCCO)C4CCCCC4)ccc3N=C2N1` showed a Ratio [2] of 0.47.
For `CN(C(=O)CCCOc1ccc2c(c1)CN1CC(=O)NC1=N2)C1CCCC1`, the Ratio [2] was 0.5.
For `CC(O)[C@@H]1C(=O)NC2=Nc3ccc(OCCCC(=O)N(C)C4CCCCC4)cc3CN21` (stereo partly specified), the Ratio [2] was 2.3.
`C[C@H]1C(=O)NC2=Nc3ccc(OCCCC(=O)N(C)C4CCCCC4)cc3CN21` showed a Ratio [2] of 3.
Work on `COCCN(C(=O)CCCOc1ccc2c(c1)CN1CC(=O)NC1=N2)C1CCCCC1` yielded a Ratio [2] of 7.7.
Work on `CN(C(=O)CCCCc1ccc2c(c1)CN1CC(=O)NC1=N2)C1CCCCC1` yielded a Ratio [2] of 1.1.
`CN(C(=O)CCCOc1ccc2c(c1)CN1C(=O)CNC1=N2)C1CCCCC1` gave a Ratio [2] of 0.11.
Work on `CN(C(=O)CCCOc1ccc2c(c1)NC1=NC(=O)CN1C2)C1CCCCC1` yielded a Ratio [2] of 0.43.
Compound `CN(C(=O)CCCOc1ccc2c(c1)CN1C(=N2)NC(=O)C12CC2)C1CCCCC1` has a Ratio [2] of 4.9.
Work on `O=C1CN2Cc3cc(OCCCC(=O)N4CCCC4)ccc3N=C2N1` yielded a Ratio [1] of 5.
Compound `CC[C@H]1C(=O)NC2=Nc3ccc(OCCCC(=O)N(C)C4CCCCC4)cc3CN21` has a Ratio [2] of 0.78.
